These results are taken from US9532983B2, “Benzofuran compounds, compositions, kits and/or methods thereof” (Savannah State University, priority 2013, dated 2017).

The chains behind the UniProt entries cited, without tags or fusion partners.
UniProt Q9R0C9, whole entry: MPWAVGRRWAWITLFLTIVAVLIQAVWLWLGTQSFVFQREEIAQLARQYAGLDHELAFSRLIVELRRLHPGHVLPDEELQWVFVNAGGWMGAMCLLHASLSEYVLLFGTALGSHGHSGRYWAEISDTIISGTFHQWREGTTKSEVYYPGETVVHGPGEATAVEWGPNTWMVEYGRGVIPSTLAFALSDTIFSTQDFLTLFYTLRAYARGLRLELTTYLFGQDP

In the assay the target is T1, σ1 receptor (Rattus norvegicus, UniProt Q9R0C9).
T1 construct: crude membrane fractions prepared from rat brain homogenate for σ1 receptors; from tissue; host or cells: rat brain homogenate, crude membrane fraction
The experiment in a line: Primary binding assay at σ1 receptor (NIMH-PDSP). The settings on record: 10 μM (final) assay concentration, read-out: % Inhibition σ-1. The protocol:
Initial primary binding screening assays were performed using a 50 μM (initial)−10 μM (final) assay concentration of reference and test compounds.
Finally, either crude membrane fractions prepared from rat brain homogenate for σ1 receptors or PC12 cell homogenates for σ2 receptors were added to the wells, and the plates shielded from light to prevent photolysis of light sensitive ligands.

Regarding `Cc1c(C(=O)N(CCCN2CCCCC2)c2ccccc2)oc2ccccc12` [KSCM-5, 3-Methyl-N-phenyl-N-(3-(piperidin-1-yl)propyl)benzofuran-2-carboxamide], the inhibition at 10 µM is 101%.

By inhibition is commonly meant the change of the read-out against control, counted positive when it falls.
